## scFv variants of Ab-14 (light chain) against a SARS-CoV-2 spike peptide

The measurements come from Engelhart et al. 2022 (doi:10.1038/s41597-022-01779-4) through the FLAb antibody collection.

Antigen: PDVDLGDISGINAS, a 14-residue peptide of the SARS-CoV-2 spike HR2 region.

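Variants in AAYL50 differ from the parent at up to three CDR positions; double and triple changes were sampled at random. AlphaSeq pools MATa yeast showing the antibodies with MATalpha yeast showing the peptide. After mating in shaken culture at 30 °C for 16 h, diploids were selected and their barcode pairs sequenced. A regression on co-assayed BCL2-family reference pairs converts the normalised counts of each replicate to an apparent Kd. Each pool was mated in three replicate cultures.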

Each scFv is VH, three GGGGS repeats, VL, as in the parent Ab-14, and differs from it in the CDRs of the light chain only.
VH: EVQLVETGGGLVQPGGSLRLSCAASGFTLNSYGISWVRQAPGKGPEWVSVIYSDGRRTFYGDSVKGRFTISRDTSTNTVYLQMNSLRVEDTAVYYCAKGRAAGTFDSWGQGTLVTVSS
VL: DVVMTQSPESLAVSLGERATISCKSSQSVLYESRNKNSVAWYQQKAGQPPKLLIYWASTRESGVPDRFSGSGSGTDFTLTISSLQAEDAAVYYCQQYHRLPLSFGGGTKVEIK

Substitutions are numbered in sequence along the VL above, starting at 1 (not Kabat). All variants listed here change Y97 of the VL, counted from its first residue. Kd is apparent (estimated from mating counts) and averaged on the log scale over replicates with a signal. Smaller is tighter. "nd" means that the variant was in the library but no mating with the target was seen in any replicate; the authors take this as a sign of poor binding, and no number exists. In this assay the parent's reference entry averaged 4.4 nM; its copy inside this library read 48 nM. As a blank, each scFv also met three strains without target: over library AAYL50, 18% of these pairings were detected, typically at 15 µM and seldom below 970 nM. For each scFv, signals with the empty controls are counted beside the result.

For V29R/S38G/Y97H, the assay gave nd (0 of 3 replicates; controls 3 of 9). For V29T/Y97C/L102I, the assay gave 8.1 µM (1 of 3 replicates; controls 2 of 9). The variant A57S/Y97M gave 2.8 µM (1 of 3 replicates; controls 2 of 9). With S26Q/Q27S/Y97K the result was 37 nM (3 of 3 replicates; controls 1 of 9). For A57K/Y97M/S103V, the assay gave nd (0 of 3 replicates; controls 0 of 9). The variant K24M/V29K/Y97S showed 5.3 µM (1 of 3 replicates; controls 0 of 9). The variant R60W/Q95M/Y97C showed 38 µM (2 of 3 replicates; controls 3 of 9).

For S26N/Y97Q/H98M, the assay gave nd (0 of 3 replicates; controls 6 of 9). The variant S25R/S33R/Y97L gave nd (0 of 3 replicates; controls 0 of 9). The variant Q27P/N35S/Y97Q showed 30 nM (3 of 3 replicates; controls 1 of 9). The variant V39R/A40Y/Y97S showed nd (0 of 3 replicates; controls 0 of 9). With A57V/Y97H the result was 110 µM (2 of 3 replicates; controls 3 of 9). The variant K24Y/Q96R/Y97E showed 120 nM (3 of 3 replicates; controls 5 of 9). The variant R34P/A40W/Y97E gave nd (0 of 3 replicates; controls 1 of 9).

The variant Y31G/A40C/Y97Q gave 43 µM (2 of 3 replicates; controls 1 of 9). With R60Q/Y97Q/L100A the result was 36 µM (1 of 3 replicates; controls 4 of 9). The variant A40P/Y97R/L102F gave nd (0 of 3 replicates; controls 0 of 9). The variant K36R/R60P/Y97C gave nd (0 of 3 replicates; controls 0 of 9). The variant Q27D/S62M/Y97L gave nd (0 of 3 replicates; controls 2 of 9). With S58C/Y97P/L100S the result was nd (0 of 3 replicates; controls 1 of 9). With E32Y/Y97L/L100Y the result was nd (0 of 3 replicates; controls 0 of 9).

The variant Y31G/A57G/Y97C showed 4.4 µM (1 of 3 replicates; controls 1 of 9). The variant E32R/W56H/Y97L gave nd (0 of 3 replicates; controls 0 of 9). The variant S26T/A57C/Y97C gave nd (0 of 3 replicates; controls 0 of 9). For S26M/L30Q/Y97F, the assay gave 740 nM (3 of 3 replicates; controls 3 of 9). The variant E32N/S62R/Y97S showed 6.4 nM (3 of 3 replicates; controls 0 of 9). The variant S38L/Y97C showed nd (0 of 3 replicates; controls 1 of 9). The variant E61V/Q95D/Y97N gave 570 nM (3 of 3 replicates; controls 2 of 9).

The variant S26D/Y31L/Y97K gave nd (0 of 3 replicates; controls 2 of 9). The variant S33F/Q96N/Y97S gave 4.8 µM (1 of 3 replicates; controls 0 of 9). The variant Y97M/L102M gave 32 nM (3 of 3 replicates; controls 2 of 9). The variant Y97N/H98C gave nd (0 of 3 replicates; controls 3 of 9). The variant V29G/Y97Q gave 95 µM (1 of 3 replicates; controls 3 of 9). For S28N/Y97I, the assay gave nd (0 of 3 replicates; controls 3 of 9). For K24G/R34F/Y97R, the assay gave 78 nM (3 of 3 replicates; controls 2 of 9).

The variant K24H/E32L/Y97V showed nd (0 of 3 replicates; controls 0 of 9). With K24D/Y31K/Y97C the result was 33 µM (2 of 3 replicates; controls 3 of 9). With R34V/Y97W/R99P the result was 5.5 nM (3 of 3 replicates; controls 0 of 9). The variant S26V/R34D/Y97D showed 4.1 nM (3 of 3 replicates; controls 1 of 9). For L30D/Q96D/Y97I, the assay gave nd (0 of 3 replicates; controls 1 of 9). For N37K/W56E/Y97T, the assay gave 7.8 nM (3 of 3 replicates; controls 5 of 9). The variant S25V/Y97H showed 120 nM (3 of 3 replicates; controls 1 of 9).

The variant S25F/S33C/Y97Q showed 50 µM (3 of 3 replicates; controls 5 of 9). The variant S28E/Y97T/L102G showed 5.6 nM (3 of 3 replicates; controls 1 of 9). With Y31K/R34A/Y97H the result was 74 nM (3 of 3 replicates; controls 0 of 9). The variant S26G/S62Y/Y97H showed 83 nM (3 of 3 replicates; controls 2 of 9). For W56Q/T59L/Y97H, the assay gave 340 nM (3 of 3 replicates; controls 4 of 9). For Q95W/Y97K/L102M, the assay gave nd (0 of 3 replicates; controls 0 of 9). With S33V/N35M/Y97H the result was nd (0 of 3 replicates; controls 0 of 9).

With S38C/S62T/Y97W the result was 120 nM (3 of 3 replicates; controls 2 of 9).